Measurements from ChEMBL document CHEMBL2424523, “2,3,9- and 2,3,11-trisubstituted tetrahydroprotoberberines as D2 dopaminergic ligands” (Eur J Med Chem, 2013).

Species: Rattus norvegicus
Assay: Selectivity ratio of Ki for dopamine D1 receptor in rat striatal membranes to Ki for dopamine D2 receptor in rat striatal membranes
Type: cell membranes
Details: Membrane
Procedure, shortened: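 Ratio Ki(D1)/Ki(D2) from striatal membrane displacement assays: [3H]SCH 23390 at 0.25 nM (D1) and [3H]raclopride at 0.5 nM (D2), each incubated 1 h at 25 °C, with filtration and scintillation counting. Ki data are from 3-5 experiments.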

Ratio Ki: 40.6
SMILES: Oc1cc2c(cc1O)C1Cc3cccc(O)c3CN1CC2 (stereo unspecified)
